Experiment [1] is described as follows: Selectivity ratio of IC50 for DNA-PK (unknown origin) to IC50 for ATK (unknown origin).
Experiment [2] can be described thus: Selectivity ratio of IC50 for mTOR (unknown origin) to IC50 for ATK (unknown origin).

For the compound `CNc1nc2ccccc2n1-c1nc(N2CCOC[C@H]2C)c2scc(S(C)(=O)=O)c2n1`, the Selectivity ratio in experiment [1] amounted to 16.9; in experiment [2], 39.2.

Values taken from ChEMBL document CHEMBL5321234, “Discovery of Thieno[3,2-d]pyrimidine derivatives as potent and selective inhibitors of ataxia telangiectasia mutated and Rad3 related (ATR) kinase” (Eur J Med Chem, 2023).
